# Reference: paper PMC11079024, “Identification of a family of species-selective complex I inhibitors as potential anthelmintics” (Nature Communications, 2024)
# Sequences of proteins named here, by UniProt entry; tags and fusion partners are left off. A change or cut given only in a name is not applied to a line headed by its entry. Residues count along the entry.
# UniProt P24887: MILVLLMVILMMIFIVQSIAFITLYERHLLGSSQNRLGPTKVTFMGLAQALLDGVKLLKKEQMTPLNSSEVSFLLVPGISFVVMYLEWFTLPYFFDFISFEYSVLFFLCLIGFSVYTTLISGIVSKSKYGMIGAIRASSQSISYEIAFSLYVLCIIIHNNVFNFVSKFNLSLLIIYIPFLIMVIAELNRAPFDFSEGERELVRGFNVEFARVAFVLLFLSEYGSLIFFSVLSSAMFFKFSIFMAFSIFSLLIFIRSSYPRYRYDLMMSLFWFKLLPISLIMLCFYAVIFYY
# UniProt Q93873, 31-482: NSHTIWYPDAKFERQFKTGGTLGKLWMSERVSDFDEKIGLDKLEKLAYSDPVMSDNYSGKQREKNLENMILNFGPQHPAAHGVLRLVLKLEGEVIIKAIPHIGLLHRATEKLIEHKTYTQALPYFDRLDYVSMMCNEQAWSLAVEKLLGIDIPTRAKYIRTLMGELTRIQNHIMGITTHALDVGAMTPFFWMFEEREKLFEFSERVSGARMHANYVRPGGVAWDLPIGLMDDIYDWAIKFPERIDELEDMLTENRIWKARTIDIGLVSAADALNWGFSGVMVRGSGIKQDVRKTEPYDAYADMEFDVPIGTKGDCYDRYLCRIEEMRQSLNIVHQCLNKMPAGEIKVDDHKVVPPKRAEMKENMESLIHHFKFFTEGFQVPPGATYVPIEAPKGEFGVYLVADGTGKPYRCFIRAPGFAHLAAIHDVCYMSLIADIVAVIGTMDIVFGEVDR
# UniProt Q94360, 17-199: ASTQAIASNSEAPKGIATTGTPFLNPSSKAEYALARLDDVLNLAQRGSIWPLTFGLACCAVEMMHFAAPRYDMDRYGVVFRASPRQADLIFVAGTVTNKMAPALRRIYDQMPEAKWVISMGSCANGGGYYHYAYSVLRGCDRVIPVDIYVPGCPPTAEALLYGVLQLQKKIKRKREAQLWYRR
# UniProt P03887, whole entry: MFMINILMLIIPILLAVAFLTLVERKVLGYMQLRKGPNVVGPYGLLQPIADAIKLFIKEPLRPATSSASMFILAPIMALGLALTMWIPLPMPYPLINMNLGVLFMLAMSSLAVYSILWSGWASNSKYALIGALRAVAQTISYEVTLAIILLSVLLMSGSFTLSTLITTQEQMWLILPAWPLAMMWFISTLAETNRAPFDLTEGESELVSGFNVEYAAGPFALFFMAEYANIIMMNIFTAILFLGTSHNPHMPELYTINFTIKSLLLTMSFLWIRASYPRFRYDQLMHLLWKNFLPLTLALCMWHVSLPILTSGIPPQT
# UniProt P17694, 34-463: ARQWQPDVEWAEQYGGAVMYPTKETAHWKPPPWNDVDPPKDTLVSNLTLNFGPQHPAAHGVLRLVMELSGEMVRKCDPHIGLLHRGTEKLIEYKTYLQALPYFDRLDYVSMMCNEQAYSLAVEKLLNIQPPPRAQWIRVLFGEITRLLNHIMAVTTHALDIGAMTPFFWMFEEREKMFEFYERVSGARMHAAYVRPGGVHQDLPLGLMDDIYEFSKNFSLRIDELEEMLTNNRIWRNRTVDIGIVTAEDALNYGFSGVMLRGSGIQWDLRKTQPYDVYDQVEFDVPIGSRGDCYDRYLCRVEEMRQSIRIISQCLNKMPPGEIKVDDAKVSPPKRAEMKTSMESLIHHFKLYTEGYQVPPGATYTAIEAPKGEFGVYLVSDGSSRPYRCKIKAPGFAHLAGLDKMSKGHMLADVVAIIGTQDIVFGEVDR
# UniProt P42026, 38-216: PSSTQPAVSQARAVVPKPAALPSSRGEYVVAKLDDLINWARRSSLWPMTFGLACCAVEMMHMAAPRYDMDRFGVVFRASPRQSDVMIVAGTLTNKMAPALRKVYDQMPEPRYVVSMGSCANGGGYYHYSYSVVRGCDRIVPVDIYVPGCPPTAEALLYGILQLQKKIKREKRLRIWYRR
# UniProt P03888: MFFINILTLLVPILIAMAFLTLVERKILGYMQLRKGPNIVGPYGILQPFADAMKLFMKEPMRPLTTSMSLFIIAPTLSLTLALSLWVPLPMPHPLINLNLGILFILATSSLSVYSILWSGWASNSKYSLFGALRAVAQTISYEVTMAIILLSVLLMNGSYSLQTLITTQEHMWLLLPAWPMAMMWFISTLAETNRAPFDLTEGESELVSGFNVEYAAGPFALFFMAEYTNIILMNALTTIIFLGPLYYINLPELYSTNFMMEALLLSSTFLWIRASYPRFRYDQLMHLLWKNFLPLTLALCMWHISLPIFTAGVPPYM
# UniProt Q91WD5, 34-463: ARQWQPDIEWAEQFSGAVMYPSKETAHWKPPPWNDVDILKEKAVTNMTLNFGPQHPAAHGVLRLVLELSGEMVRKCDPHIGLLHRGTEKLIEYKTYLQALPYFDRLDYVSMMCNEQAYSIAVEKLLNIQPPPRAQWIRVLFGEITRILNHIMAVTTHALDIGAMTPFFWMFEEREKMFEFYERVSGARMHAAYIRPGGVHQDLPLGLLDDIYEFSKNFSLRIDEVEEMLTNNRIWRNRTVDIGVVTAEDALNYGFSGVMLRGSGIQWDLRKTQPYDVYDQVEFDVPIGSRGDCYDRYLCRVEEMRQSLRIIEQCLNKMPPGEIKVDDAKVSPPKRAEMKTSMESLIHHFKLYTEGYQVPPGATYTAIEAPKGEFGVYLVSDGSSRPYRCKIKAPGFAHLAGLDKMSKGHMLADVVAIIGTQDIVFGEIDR
# UniProt Q9DC70, 36-224: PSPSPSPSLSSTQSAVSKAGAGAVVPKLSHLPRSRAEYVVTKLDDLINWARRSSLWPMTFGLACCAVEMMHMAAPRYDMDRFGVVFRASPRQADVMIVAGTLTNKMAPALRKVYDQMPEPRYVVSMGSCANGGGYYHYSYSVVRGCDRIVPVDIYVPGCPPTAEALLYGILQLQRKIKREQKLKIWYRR
# Several values for one entry are separate records, joined by “and”; a condition that tells them apart may be missing. Equal entries are not always repeated. Where two headings read alike, the source gives them in different places.
# Legend:
# [1] = target: C. elegans (N2) complex I (NADH:ubiquinone oxidoreductase) (Caenorhabditis elegans, UniProt P24887+Q93873+Q94360); test: biochemical; type: biochemical; conditions: for percent (%) in vitro complex I activity relative to solvent control: wild-type C. elegans mitochondria, single replicate; for percent in vitro complex I activity relative to solvent control, single replicates: wild-type C. elegans, individual Rep1-Rep4
# [2] = target: B. taurus (heart) complex I (Bos taurus, UniProt P03887+P17694+P42026); type: biochemical; conditions: for B. taurus: C. elegans IC50 Fold Change (Complex I IC50 ~Fold Change) / Complex I IC50 ~Fold Change / IC50 Fold change: heart mitochondria; for percent (%) in vitro complex I activity relative to solvent control: B. taurus (heart) mitochondria, single replicate
# [3] = target: M. musculus (heart) complex I (Mus musculus, UniProt P03888+Q91WD5+Q9DC70); type: biochemical; conditions: for M. musculus: C. elegans IC50 Fold Change: heart mitochondria; for percent (%) in vitro complex I activity relative to solvent control: M. musculus (heart) mitochondria, single replicate
# L1 wild-type C. elegans = conditions: 50 μM; […]; worm motility 3 hours after the removal of KCN (endpoint); relative to DMSO controls; single biological replicate
smiles,measurement,setting,value
COc1cc2c(cc1OC)C(C(C)c1ccc(CC(C)C)cc1)=NCC2 (centres unmarked) [NPD10504],percent (%) in vitro complex I activity relative to solvent control,[1]; 0.125 µM,100.304% and 94.360% and 87.363%
same,percent (%) in vitro complex I activity relative to solvent control,[1]; 0.313 µM,102.145% and 93.069% and 82.299%
same,percent (%) in vitro complex I activity relative to solvent control,[1]; 1.5 µM,84.112% and 75.755% and 78.095%
same,percent (%) in vitro complex I activity relative to solvent control,[1]; 3 µM,63.002% and 56.869% and 54.489%
same,percent (%) in vitro complex I activity relative to solvent control,[1]; 7.5 µM,32.243% and 21.775% and 17.664%
same,percent (%) in vitro complex I activity relative to solvent control,[1]; 15 µM,13.403% and 18.209% and 10.130%
same,percent (%) in vitro complex I activity relative to solvent control,[1]; 37.5 µM,3.265% and 5.643% and 23.594% and 17.069%
same,percent (%) in vitro complex I activity relative to solvent control,[1]; 75 µM,2.371% and 3.940% and 26.690% and 16.321%
same,B. taurus: C. elegans IC50 Fold Change (Complex I IC50 ~Fold Change),[2],3.4
same,M. musculus: C. elegans IC50 Fold Change,[3],2.9
Cc1nc2ccccc2n1Cc1ccc(Br)cc1 [Compound 5567167],Relative Motility,L1 wild-type C. elegans,0.100
same,"percent in vitro complex I activity relative to solvent control, single replicates",[1]; 0.0001 µM,88.215% and 85.236% and 76.019%
same,"percent in vitro complex I activity relative to solvent control, single replicates",[1]; 0.0005 µM,93.838% and 79.218% and 84.363%
same,"percent in vitro complex I activity relative to solvent control, single replicates",[1]; 0.001 µM,88.775% and 83.959% and 79.175%
same,"percent in vitro complex I activity relative to solvent control, single replicates",[1]; 0.0025 µM,67.494% and 94.472% and 77.284% and 79.707%
same,"percent in vitro complex I activity relative to solvent control, single replicates",[1]; 0.005 µM,85.403% and 80.690% and 74.072%
same,"percent in vitro complex I activity relative to solvent control, single replicates",[1]; 0.013 µM,76.208% and 68.182% and 65.377%
same,"percent in vitro complex I activity relative to solvent control, single replicates",[1]; 0.025 µM,58.176% and 57.929% and 65.135%
same,"percent in vitro complex I activity relative to solvent control, single replicates",[1]; 0.063 µM,31.234% and 36.053% and 38.082%
same,"percent in vitro complex I activity relative to solvent control, single replicates",[1]; 0.125 µM,19.945% and 22.520% and 28.782%
same,"percent in vitro complex I activity relative to solvent control, single replicates",[1]; 0.313 µM,9.323% and 12.635% and 16.701%
same,"percent in vitro complex I activity relative to solvent control, single replicates",[1]; 0.625 µM,3.544% and 2.727% and 3.100%
same,"percent in vitro complex I activity relative to solvent control, single replicates",[1]; 1.5 µM,1.938%
same,"percent in vitro complex I activity relative to solvent control, single replicates",[1]; 3 µM,2.450%
same,"percent in vitro complex I activity relative to solvent control, single replicates",[1]; 7.5 µM,0.671%
same,"percent in vitro complex I activity relative to solvent control, single replicates",[1]; 75 µM,3.643%
same,B. taurus: C. elegans IC50 Fold Change (Complex I IC50 ~Fold Change),[2],6.5
same,Complex I IC50 ~Fold Change,[2],6.5
same,IC50 Fold change,[2],6.50
Clc1ccccc1OCCCCn1cnc2ccccc21 [Compound 7925804],Relative Motility,L1 wild-type C. elegans,0.180
same,"percent in vitro complex I activity relative to solvent control, single replicates",[1]; 0.0001 µM,94.725% and 86.433% and 95.356%
same,"percent in vitro complex I activity relative to solvent control, single replicates",[1]; 0.0005 µM,97.004% and 94.570% and 91.864%
same,"percent in vitro complex I activity relative to solvent control, single replicates",[1]; 0.001 µM,100.218% and 93.097% and 105.429% and 84.942%
same,"percent in vitro complex I activity relative to solvent control, single replicates",[1]; 0.0025 µM,98.014% and 106.578% and 95.293%
same,"percent in vitro complex I activity relative to solvent control, single replicates",[1]; 0.005 µM,98.263% and 91.239% and 90.485%
same,"percent in vitro complex I activity relative to solvent control, single replicates",[1]; 0.013 µM,98.806% and 99.730% and 94.066%
same,"percent in vitro complex I activity relative to solvent control, single replicates",[1]; 0.025 µM,90.123% and 105.982% and 94.724%
same,"percent in vitro complex I activity relative to solvent control, single replicates",[1]; 0.063 µM,77.781% and 84.122% and 81.033%
same,"percent in vitro complex I activity relative to solvent control, single replicates",[1]; 0.125 µM,64.094% and 68.358% and 61.394%
same,"percent in vitro complex I activity relative to solvent control, single replicates",[1]; 0.313 µM,45.392% and 52.240% and 38.251%
same,"percent in vitro complex I activity relative to solvent control, single replicates",[1]; 0.625 µM,42.466% and 37.091% and 29.487% and 21.788%
same,"percent in vitro complex I activity relative to solvent control, single replicates",[1]; 1.5 µM,19.351% and 18.310% and 16.485% and 7.719%
same,"percent in vitro complex I activity relative to solvent control, single replicates",[1]; 3 µM,11.385% and 15.840% and 1.979% and 6.321%
same,"percent in vitro complex I activity relative to solvent control, single replicates",[1]; 7.5 µM,6.929% and 7.267% and 7.400% and 0.000%
same,"percent in vitro complex I activity relative to solvent control, single replicates",[1]; 15 µM,4.269% and 3.612% and 2.481% and 0.000%
same,"percent in vitro complex I activity relative to solvent control, single replicates",[1]; 37.5 µM,5.799% and 6.015% and 0.000%
same,"percent in vitro complex I activity relative to solvent control, single replicates",[1]; 75 µM,7.727% and 6.213% and 8.069% and 3.510%
same,B. taurus: C. elegans IC50 Fold Change (Complex I IC50 ~Fold Change),[2],5
same,Complex I IC50 ~Fold Change,[2],5
same,IC50 Fold change,[2],5.00
"COc1ccc(Cc2nccc3cc(OC)c(OC)cc23)cc1OC [Papaverine, reference compound]",percent (%) in vitro complex I activity relative to solvent control,[1]; 0.125 µM,94.687% and 82.605% and 109.027%
same,percent (%) in vitro complex I activity relative to solvent control,"[1]; 0.125 µM, listed as papaverine",96.440%
same,percent (%) in vitro complex I activity relative to solvent control,[1]; 0.313 µM,83.609% and 89.316%
same,percent (%) in vitro complex I activity relative to solvent control,"[1]; 0.313 µM, listed as papaverine",91.207%
same,percent (%) in vitro complex I activity relative to solvent control,[1]; 1.5 µM,86.357% and 77.276%
same,percent (%) in vitro complex I activity relative to solvent control,"[1]; 1.5 µM, listed as papaverine",82.039%
same,percent (%) in vitro complex I activity relative to solvent control,[1]; 3 µM,61.202% and 62.914%
same,percent (%) in vitro complex I activity relative to solvent control,"[1]; 3 µM, listed as papaverine",63.720%
same,percent (%) in vitro complex I activity relative to solvent control,[1]; 7.5 µM,36.553% and 36.203%
same,percent (%) in vitro complex I activity relative to solvent control,"[1]; 7.5 µM, listed as papaverine",31.827%
same,percent (%) in vitro complex I activity relative to solvent control,[1]; 15 µM,14.878% and 34.729% and 23.907%
same,percent (%) in vitro complex I activity relative to solvent control,"[1]; 15 µM, listed as papaverine",14.841%
same,percent (%) in vitro complex I activity relative to solvent control,[1]; 37.5 µM,1.550% and 14.338% and 5.935%
same,percent (%) in vitro complex I activity relative to solvent control,"[1]; 37.5 µM, listed as papaverine",5.926%
same,percent (%) in vitro complex I activity relative to solvent control,[1]; 75 µM,0.000% and 16.770% and 11.020%
same,percent (%) in vitro complex I activity relative to solvent control,"[1]; 75 µM, listed as papaverine",2.169%
same,percent (%) in vitro complex I activity relative to solvent control,[2]; 0.125 µM,95.707% and 93.819%
same,percent (%) in vitro complex I activity relative to solvent control,[2]; 0.313 µM,93.411% and 96.318%
same,percent (%) in vitro complex I activity relative to solvent control,[2]; 0.625 µM,85.649% and 91.371%
same,percent (%) in vitro complex I activity relative to solvent control,[2]; 1.5 µM,81.759% and 81.062%
same,percent (%) in vitro complex I activity relative to solvent control,[2]; 3 µM,79.268% and 83.993% and 77.320%
same,percent (%) in vitro complex I activity relative to solvent control,[2]; 15 µM,31.763% and 38.614% and 35.232%
same,percent (%) in vitro complex I activity relative to solvent control,[2]; 37.5 µM,13.885% and 17.467% and 14.372%
same,percent (%) in vitro complex I activity relative to solvent control,[2]; 75 µM,9.851% and 5.127%
same,B. taurus: C. elegans IC50 Fold Change (Complex I IC50 ~Fold Change),[2],1.9
same,percent (%) in vitro complex I activity relative to solvent control,[3]; 0.125 µM,94.907% and 90.711% and 93.003%
same,percent (%) in vitro complex I activity relative to solvent control,[3]; 0.313 µM,90.141% and 92.770% and 87.288%
same,percent (%) in vitro complex I activity relative to solvent control,[3]; 0.625 µM,89.892% and 88.846% and 87.339%
same,percent (%) in vitro complex I activity relative to solvent control,[3]; 1.5 µM,79.624% and 76.357% and 79.555%
same,percent (%) in vitro complex I activity relative to solvent control,[3]; 3 µM,64.060% and 60.591% and 64.935%
same,percent (%) in vitro complex I activity relative to solvent control,[3]; 7.5 µM,37.124% and 26.838% and 34.573%
same,percent (%) in vitro complex I activity relative to solvent control,[3]; 15 µM,19.495% and 10.432% and 12.487%
same,percent (%) in vitro complex I activity relative to solvent control,[3]; 37.5 µM,4.721% and 7.548% and 0.380% and 4.520%
same,percent (%) in vitro complex I activity relative to solvent control,[3]; 75 µM,2.064% and 3.004% and 0.000% and 0.416%
same,M. musculus: C. elegans IC50 Fold Change,[3],1.1
COc1cc2c(cc1OC)C(c1ccc(-c3ccc(Cl)c(Cl)c3)o1)=NCC2 [NPD3577],percent (%) in vitro complex I activity relative to solvent control,[1]; 0.125 µM,97.708% and 99.291% and 93.354%
same,percent (%) in vitro complex I activity relative to solvent control,[1]; 0.313 µM,97.105% and 93.945% and 86.205%
same,percent (%) in vitro complex I activity relative to solvent control,[1]; 1.5 µM,94.111% and 90.424% and 96.415%
same,percent (%) in vitro complex I activity relative to solvent control,[1]; 3 µM,91.612% and 93.694% and 91.331%
same,percent (%) in vitro complex I activity relative to solvent control,[1]; 7.5 µM,78.739% and 77.438% and 83.930%
same,percent (%) in vitro complex I activity relative to solvent control,[1]; 15 µM,63.065% and 59.782% and 63.349%
same,percent (%) in vitro complex I activity relative to solvent control,[1]; 37.5 µM,41.693% and 41.389% and 49.686%
same,percent (%) in vitro complex I activity relative to solvent control,[1]; 75 µM,47.397% and 37.818% and 40.786%
same,B. taurus: C. elegans IC50 Fold Change (Complex I IC50 ~Fold Change),[2],0.8
same,M. musculus: C. elegans IC50 Fold Change,[3],1.6
